Data as given in patent publication US12642886B2, “POSS viscoelastic hemostatic agents” (Hybrid Plastics, Incorporated, priority 2019, dated 2026).

Test system: erythrocytes

For “trisilanol hepta-isoOctyl POSS [i-octylPOSS trisilanol]”, the lysis of erythrocytes was “do not lyse erythrocytes”.
